Results on 1 molecule are retold here after patent US20120301493A1 (UNIVERSIDADE DE SANTIAGO DE COMPOSTELA, published 2012).

The assay has as its target T1, human wild type p53 (human, UniProt P04637 1-393).
T1 construct: whole, on cells; also called untagged p53; Intercoil-free p53
Nature of the assay: co-expression in Cos-7 cells, immunofluorescence (nuclear inclusions).

B1: NLS-Ag.T-muNS (muNS fused with the NLS of the SV40 T-antigen at its amino end) (other)
chain: PKKKRKVMASTKWGDKPMSVSMSHDGSSIRSAASQFLSGPLFHSTPIPPQRKTVLLKFMIGDELVTVQGALAPFDEYWYDNQPLLAQAVEMLASADRLRQFEHYEKFLLKKGHQITEIMNRLRLFFTDVLKVKMEADALPALAQYLMVGTLEAVSTADSPDACVPVTSKILAKQQTIAKSPGRLDEEEYNVIRSRFLTHEVFDLTSDLPGVQPFMDMYYATVPRADSTGWCVYRRKGLLIHAPDEQFSDLTIFSTRLTASRELQLVAGDVAVACFDLMDVSDIAPSHHASVQEERTLGTSRYSNVTANDHPLVFFSPSALRWAIDHACTDSLVSTRNIRVCVGIDPLVTRWTRDGVQEAAILMDDKLPSAGRARMALRTLLLARRSPMTSFLLGALKQSGGQLMEHYRCDAANRYGSPTVPVSHSPPCSKCPELKEQITKLSSSPLPKIDSNVGPAALLSKIADLQRANRELSLKLVDVQPAREDHLLAYLNEHVCVNAKDHEKGLLSRCNVSGDSISSILGQRVKNRERFETRLRHEASAEWEPRVEALNQELAKARVEQQDMMTQSLQYLNERDELLHEVDELKRELTTLRSANVRLNADNHRMSRATRVGDAFVSDVEPLPSGIPGESKPSMEELVDDL
Regarding B1, the binding result is recorded as “no binding”.
